Entries after “also recorded” stand apart in the source; their conditions may differ.
Experiments:
[1] = tested on: Artemia salina; assay type: in vivo
Experimental: Alpha-Nemertides were prepared as described in Example 2, above, or by manual synthesis […] on 2-chlorotrityl resin as described in the Material and methods section below. […]. The brine shrimp assay is commonly used as toxicity assay, but is particularly suitable in the current work as a model system for crustaceans. In the first round of experiments Nemertides α-1, α-2, α-5, and α-6 were evaluated. […]. Artemia salina Assay of Alpha-Nemertides. 100 μl of sea water containing about 20-30 brine shrimps were added to each experimental well of a 96-well microplate. 100 μl of peptide solutions were then added to each well. As a control, some wells were filled with 100 μl of seawater containing shrimps and 100 μl milliQwater. The plates were covered and incubated in the dark at room temperature for 24 hours. After 24 hours, 10 second video clips of each well were filmed through a microscope. The shrimps were subsequently counted and categorized as either dead (not moving), affected (moving slowly, mostly at the bottom of the well) or normal (moving normally compared to the control at all levels of the well). The shrimps were then immobilized by addition of 100 μl of methanol. After 1 hour the total number of shrimps in each well was counted and the ratio (dead+affected)/total was calculated.

Protein sequences, listed by entry. Tags and fused reporters are not part of them.
UniProt Q14524, whole entry: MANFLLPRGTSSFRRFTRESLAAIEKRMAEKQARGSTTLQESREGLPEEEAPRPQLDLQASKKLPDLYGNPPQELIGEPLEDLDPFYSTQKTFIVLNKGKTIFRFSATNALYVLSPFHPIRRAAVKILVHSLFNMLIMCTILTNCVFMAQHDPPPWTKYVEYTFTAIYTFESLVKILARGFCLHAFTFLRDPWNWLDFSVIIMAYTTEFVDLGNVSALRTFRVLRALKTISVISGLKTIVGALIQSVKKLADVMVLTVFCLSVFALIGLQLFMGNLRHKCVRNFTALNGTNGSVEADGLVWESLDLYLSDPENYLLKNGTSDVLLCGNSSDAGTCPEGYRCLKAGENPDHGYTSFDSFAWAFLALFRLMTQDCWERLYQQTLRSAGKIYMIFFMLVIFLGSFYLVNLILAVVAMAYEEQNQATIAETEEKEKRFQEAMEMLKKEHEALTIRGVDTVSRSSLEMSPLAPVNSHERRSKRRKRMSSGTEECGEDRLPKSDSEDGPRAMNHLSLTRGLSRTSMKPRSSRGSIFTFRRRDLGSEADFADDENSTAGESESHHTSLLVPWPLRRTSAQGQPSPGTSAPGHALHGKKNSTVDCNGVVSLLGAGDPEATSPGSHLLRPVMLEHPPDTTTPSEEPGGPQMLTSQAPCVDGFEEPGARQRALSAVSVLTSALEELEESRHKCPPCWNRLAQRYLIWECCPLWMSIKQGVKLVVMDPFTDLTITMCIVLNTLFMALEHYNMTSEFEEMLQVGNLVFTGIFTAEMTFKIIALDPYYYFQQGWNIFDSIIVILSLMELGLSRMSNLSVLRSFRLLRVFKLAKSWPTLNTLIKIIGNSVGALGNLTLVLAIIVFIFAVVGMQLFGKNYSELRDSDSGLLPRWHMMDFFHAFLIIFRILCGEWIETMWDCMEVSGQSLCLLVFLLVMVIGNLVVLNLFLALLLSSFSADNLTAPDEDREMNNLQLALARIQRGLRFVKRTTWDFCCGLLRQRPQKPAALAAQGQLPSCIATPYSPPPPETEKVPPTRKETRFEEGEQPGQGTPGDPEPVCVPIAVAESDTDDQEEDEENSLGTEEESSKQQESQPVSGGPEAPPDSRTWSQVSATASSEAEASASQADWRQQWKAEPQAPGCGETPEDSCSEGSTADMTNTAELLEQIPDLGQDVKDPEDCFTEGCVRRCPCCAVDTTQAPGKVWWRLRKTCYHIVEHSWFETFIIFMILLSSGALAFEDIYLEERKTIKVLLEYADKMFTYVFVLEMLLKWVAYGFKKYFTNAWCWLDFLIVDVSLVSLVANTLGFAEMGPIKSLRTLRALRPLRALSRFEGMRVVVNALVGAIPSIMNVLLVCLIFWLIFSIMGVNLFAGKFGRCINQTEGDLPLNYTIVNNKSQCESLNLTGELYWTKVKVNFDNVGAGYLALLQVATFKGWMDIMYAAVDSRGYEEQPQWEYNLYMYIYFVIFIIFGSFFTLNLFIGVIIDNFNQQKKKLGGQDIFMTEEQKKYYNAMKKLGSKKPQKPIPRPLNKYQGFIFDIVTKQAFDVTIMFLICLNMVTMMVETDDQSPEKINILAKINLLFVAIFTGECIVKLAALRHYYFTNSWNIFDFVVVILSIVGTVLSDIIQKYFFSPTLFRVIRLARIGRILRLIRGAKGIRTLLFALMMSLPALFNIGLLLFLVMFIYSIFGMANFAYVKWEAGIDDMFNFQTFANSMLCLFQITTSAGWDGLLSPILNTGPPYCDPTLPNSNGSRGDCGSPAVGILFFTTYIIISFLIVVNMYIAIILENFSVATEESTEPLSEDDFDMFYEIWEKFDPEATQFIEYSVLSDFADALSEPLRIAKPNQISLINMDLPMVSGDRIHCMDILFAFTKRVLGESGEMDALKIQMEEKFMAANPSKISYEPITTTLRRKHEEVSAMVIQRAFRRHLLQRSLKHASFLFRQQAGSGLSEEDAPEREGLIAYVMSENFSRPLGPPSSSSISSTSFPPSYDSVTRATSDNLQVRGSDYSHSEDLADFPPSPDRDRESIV
UniProt Q9Y5Y9, whole entry: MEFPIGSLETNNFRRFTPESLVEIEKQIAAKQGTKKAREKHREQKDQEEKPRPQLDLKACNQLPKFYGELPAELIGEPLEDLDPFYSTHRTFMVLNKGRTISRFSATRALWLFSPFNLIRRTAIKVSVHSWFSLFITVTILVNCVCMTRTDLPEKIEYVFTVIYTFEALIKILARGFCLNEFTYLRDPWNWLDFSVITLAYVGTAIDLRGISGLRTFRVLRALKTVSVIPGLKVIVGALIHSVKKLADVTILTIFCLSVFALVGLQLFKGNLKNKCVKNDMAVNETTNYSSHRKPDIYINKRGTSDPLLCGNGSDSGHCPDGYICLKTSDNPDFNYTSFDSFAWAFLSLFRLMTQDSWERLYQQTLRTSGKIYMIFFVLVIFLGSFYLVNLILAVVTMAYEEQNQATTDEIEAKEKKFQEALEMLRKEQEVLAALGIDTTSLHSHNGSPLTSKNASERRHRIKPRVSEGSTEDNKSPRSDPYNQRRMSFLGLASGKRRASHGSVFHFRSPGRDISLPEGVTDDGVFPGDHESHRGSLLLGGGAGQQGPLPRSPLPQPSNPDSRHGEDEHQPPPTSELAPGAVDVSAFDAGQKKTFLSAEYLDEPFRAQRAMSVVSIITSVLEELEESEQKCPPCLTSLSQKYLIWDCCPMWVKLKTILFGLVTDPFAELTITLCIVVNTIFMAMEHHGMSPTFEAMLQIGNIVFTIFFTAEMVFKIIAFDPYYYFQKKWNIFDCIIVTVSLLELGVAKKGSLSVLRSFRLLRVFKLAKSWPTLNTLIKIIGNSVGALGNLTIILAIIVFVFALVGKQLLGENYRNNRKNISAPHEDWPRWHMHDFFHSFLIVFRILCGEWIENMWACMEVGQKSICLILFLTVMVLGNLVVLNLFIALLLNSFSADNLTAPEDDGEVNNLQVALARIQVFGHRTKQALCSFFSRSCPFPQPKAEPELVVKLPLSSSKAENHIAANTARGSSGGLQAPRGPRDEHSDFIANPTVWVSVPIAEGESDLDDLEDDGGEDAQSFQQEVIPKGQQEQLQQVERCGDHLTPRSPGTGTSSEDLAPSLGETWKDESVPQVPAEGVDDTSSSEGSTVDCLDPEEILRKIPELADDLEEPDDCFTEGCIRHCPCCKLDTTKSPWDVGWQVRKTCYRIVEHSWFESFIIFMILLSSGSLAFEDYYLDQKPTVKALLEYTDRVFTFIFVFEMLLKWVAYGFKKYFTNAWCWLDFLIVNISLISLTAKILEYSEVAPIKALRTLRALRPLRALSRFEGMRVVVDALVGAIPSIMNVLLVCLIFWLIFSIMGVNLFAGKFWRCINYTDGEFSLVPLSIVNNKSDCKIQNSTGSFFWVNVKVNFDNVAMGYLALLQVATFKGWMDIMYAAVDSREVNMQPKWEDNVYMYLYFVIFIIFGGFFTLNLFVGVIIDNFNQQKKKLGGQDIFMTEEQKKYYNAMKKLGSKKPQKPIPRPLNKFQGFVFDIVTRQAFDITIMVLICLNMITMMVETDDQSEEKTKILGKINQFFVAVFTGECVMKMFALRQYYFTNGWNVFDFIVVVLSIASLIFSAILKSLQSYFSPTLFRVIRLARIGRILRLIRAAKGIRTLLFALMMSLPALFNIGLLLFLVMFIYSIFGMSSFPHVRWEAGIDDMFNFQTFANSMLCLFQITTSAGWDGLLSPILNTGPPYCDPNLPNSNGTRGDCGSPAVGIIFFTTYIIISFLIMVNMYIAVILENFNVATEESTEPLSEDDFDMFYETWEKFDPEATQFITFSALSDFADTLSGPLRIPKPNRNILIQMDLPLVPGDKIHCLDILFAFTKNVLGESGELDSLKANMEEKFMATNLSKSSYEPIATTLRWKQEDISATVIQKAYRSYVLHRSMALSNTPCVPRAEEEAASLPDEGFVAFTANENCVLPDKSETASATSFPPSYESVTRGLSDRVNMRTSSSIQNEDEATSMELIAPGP
UniProt Q9WTU3, whole entry: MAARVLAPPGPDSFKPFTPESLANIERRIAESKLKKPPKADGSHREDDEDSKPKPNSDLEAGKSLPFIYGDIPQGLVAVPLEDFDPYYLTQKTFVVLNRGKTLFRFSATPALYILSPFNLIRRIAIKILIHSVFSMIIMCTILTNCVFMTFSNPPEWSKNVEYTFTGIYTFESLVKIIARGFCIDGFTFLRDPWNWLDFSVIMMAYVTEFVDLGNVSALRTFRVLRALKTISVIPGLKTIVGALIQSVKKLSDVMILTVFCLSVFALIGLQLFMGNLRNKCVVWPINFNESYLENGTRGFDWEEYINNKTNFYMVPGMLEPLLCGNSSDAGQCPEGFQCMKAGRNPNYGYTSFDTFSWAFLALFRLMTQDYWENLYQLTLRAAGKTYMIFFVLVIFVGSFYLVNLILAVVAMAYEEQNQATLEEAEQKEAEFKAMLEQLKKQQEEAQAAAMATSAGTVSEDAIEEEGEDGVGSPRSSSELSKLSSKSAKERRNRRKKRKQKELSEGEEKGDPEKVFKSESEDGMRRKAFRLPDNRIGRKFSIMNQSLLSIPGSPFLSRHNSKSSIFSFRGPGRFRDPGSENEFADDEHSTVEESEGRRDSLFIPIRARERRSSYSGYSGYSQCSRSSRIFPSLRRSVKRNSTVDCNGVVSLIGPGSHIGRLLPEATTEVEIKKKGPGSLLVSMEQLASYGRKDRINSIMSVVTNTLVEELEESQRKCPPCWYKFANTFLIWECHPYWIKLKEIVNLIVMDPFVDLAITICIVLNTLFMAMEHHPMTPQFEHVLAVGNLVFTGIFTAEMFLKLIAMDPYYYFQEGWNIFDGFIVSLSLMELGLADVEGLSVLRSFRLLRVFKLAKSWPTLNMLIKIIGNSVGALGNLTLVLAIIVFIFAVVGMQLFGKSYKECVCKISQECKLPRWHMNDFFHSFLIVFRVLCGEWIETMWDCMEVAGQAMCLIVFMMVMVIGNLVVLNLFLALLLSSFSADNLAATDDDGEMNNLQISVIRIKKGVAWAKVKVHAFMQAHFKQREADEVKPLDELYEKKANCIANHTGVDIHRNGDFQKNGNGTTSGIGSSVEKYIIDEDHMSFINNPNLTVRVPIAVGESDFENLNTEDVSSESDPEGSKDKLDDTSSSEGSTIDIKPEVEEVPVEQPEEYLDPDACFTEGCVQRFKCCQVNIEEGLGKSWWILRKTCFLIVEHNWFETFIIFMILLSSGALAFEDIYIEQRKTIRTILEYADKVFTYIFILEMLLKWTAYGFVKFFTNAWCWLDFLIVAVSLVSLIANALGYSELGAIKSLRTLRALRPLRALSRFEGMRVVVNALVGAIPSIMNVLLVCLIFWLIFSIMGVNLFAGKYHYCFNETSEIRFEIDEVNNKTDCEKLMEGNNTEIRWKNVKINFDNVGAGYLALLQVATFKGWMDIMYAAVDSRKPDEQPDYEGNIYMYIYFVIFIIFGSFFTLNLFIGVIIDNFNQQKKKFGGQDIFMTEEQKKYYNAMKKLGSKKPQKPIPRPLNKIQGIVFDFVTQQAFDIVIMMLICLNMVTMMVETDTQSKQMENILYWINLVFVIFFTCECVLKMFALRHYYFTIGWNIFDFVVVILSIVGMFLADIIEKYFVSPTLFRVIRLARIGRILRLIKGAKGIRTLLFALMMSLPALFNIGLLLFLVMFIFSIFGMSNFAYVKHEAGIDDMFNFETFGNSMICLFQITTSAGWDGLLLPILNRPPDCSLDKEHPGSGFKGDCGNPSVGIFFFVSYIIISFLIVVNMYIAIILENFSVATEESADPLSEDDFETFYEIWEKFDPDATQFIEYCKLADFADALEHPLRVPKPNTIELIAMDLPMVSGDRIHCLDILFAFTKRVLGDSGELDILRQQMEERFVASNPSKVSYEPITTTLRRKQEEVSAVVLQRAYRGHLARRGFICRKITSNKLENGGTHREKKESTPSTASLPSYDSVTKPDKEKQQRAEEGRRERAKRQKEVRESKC

[2] = target: Nav1.1 (Rattus norvegicus, UniProt P04774); experiment: Two-electrode voltage clamp, Nav1.1 expressed in Xenopus oocytes; assay type: cell-based; conditions: 6 μM
[3] = target: Nav1.5 (Homo sapiens, UniProt Q14524); experiment: Two-electrode voltage clamp, Nav1.5 expressed in Xenopus oocytes; assay type: cell-based; conditions: 6 μM
[4] = target: T1, Nav1.8 (Homo sapiens, UniProt Q9Y5Y9); experiment: Two-electrode voltage clamp, Nav1.8 expressed in Xenopus oocytes; assay type: cell-based; conditions: 6 μM
T1 construct: expressed in transfected cells; host or cells: Xenopus laevis oocytes
From the text: Nemertide α-1 was investigated for its activity on five vertebrate and three invertebrate voltage-gated sodium channel isoforms (Navs). […] No effect was seen on Nav1.8. Steady-state activation and inactivation curves were constructed to characterize the modulation of Nav channels upon toxin binding. […]. Both the activation and inactivation curves of Nav1.5 channels were altered. […]. To assess the concentration dependence of the α-1-induced modulatory effects on Nav1.6 channels, a concentration-response curve was constructed (FIG. 5B). […]
Electrophysiology. Whole-cell currents from oocytes were recorded at room temperature (18-22° C.) by the two-electrode voltage clamp technique using a GeneClamp 500 amplifier (Molecular Devices, Sunnyvale, Calif.) controlled by a pClamp data acquisition system (Molecular Devices). Oocytes were placed in a bath containing ND96 solution. Voltage and current electrodes were filled with 3M KCl, and the resistances of both electrodes were kept between 0.7 and 1.5 MO). The elicited currents were sampled at 20 kHz and filtered at 2 kHz using a four-pole, low pass Bessel filter. […] All data was analyzed using pClamp Clampfit 10.0 (Molecular Devices®, Downingtown, Pa.) and Origin 7.5 software (Originlab®, Northampton, Mass.) and is presented as mean±standard error (S.E.M) of at least 3 independent experiments (n≥3).

[5] = tested on: BgNav1; experiment: Two-electrode voltage clamp, BgNav1 expressed in Xenopus oocytes; assay type: cell-based, Blattella germanica
[6] = target: DmNav1 (Drosophila melanogaster, UniProt P35500); experiment: Two-electrode voltage clamp, DmNav1 expressed in Xenopus oocytes; assay type: cell-based; conditions: 0.8 μM to 8 nM
[7] = tested on: Carcinus maenas; assay type: in vivo
Experimental: The effect of nemertean mucus on crustaceans is well documented, and the shore crab has been used as a model system to assess biological activity in vivo. When injected with active concentrations of nemertide α-1, tremor of the limbs was seen within 1-2 minutes. This was followed by hypertonus, and claws and legs were pulled inwards the body and the crab tilted forward. From this point the crabs remained in a paralytic state. After 20-30 minutes hypertonus was released while paralysis remained. […].
Carcinus maenas Assay. Shore crabs (20-50 g) were injected with control (500 μl sterile filtered sea water) or nemertide α-1 dissolved in sterile filtered sea water, into the cephalothorax between the first and second walking leg on the right side of the crab. Doses ranged from 0.1-50 μg/kg, in a maximal volume of 500 μl. The crabs were placed into a container filled with seawater and observed. All injections were made in duplicate.

[8] = target: Nav1.6 (Mus musculus, UniProt Q9WTU3); experiment: Two-electrode voltage clamp, Nav1.6 expressed in Xenopus oocytes; assay type: cell-based; conditions: 6 μM

`CC[C@H](C)[C@@H]1NC(=O)[C@@H](NC(=O)CN)CSSC[C@@H]2NC(=O)[C@@H]3CSSC[C@@H](C(=O)N[C@@H](CC(N)=O)C(=O)N4C[C@H](O)C[C@H]4C(=O)N4C[C@H](O)C[C@H]4C(=O)N[C@@H](CC(N)=O)C(=O)N[C@@H](CCC(N)=O)C(=O)O)NC(=O)[C@H](CCCCN)NC(=O)[C@H](Cc4ccccc4)NC(=O)[C@H](CC(N)=O)NC(=O)[C@H](Cc4c[nH]c5ccccc45)NC(=O)CNC(=O)[C@H](CSSC[C@H](NC(=O)[C@H](Cc4ccccc4)NC(=O)[C@H](CO)NC(=O)CNC(=O)[C@H]([C@@H](C)O)NC(=O)[C@H](C)NC1=O)C(=O)N[C@@H]([C@@H](C)O)C(=O)N[C@@H](CC(C)C)C(=O)N[C@@H](CO)C(=O)N[C@@H](CCCCN)C(=O)NCC(=O)N3)NC(=O)[C@H](CC(N)=O)NC(=O)[C@H](CCCCN)NC(=O)[C@H]([C@@H](C)O)NC2=O` [Nemertide α-1] was tested, and the “relative potency in brine shrimp assay” value ([1]; 24 hours, compared among native nemertides) was “most active”, the IC50 ([1]; in vivo, 24 h) was < 1 µM and the “effect on inactivation of Nav1.1” value [2] was “significantly delayed the inactivation”. The “effect on inactivation of Nav1.5” value [3] was “significantly delayed the inactivation”, the “effect on Nav1.8” value [4] was “No effect” and the “alteration of activation of BgNav1” value ([5]; 10 nM) was “No significant alteration of activation”. For the same compound, the “sodium influx through BgNav1” value ([5]; 10 nM, 50 ms depolarization from −90 mV to −30 mV) was “massive increase in sodium influx”, the “V1/2 of inactivation of BgNav1” value ([5]; 10 nM, control −60.4±0.6 mV) was −54.5±1.6 mV and the “effect on inactivation of BgNav1” value ([5]; 1 μM) was “complete inhibition of the inactivation; also recorded: completely inhibited their inactivation”. For the same compound, the “difference in EC50 between mammalian (Nav1.6) and insect (DmNav1) channels” value [6] was 100 fold, the “onset of tremor of the limbs after injection” value ([7]; active concentrations) was 1 to 2 min and the “time after which hypertonus was released while paralysis remained” value ([7]; active concentrations) was 20 to 30 min. For the same compound, the “dose giving death within minutes” value ([7]; crabs, injection) was 10 µg/kg, the “dose revealing immediate neurotoxic activity” value ([7]; crabs, injection) was 1 µg/kg and the “effective dose expressed as molar amount” value ([7]; equals 1 μg/kg) was ~300 femtomol/g. The “outcome at the higher doses” value ([7]; higher doses) was “proved lethal”, the recovery ([7]; in vivo) was “No recovery could be observed” and the “lowest dose to provoke an effect” value ([7]; later onset partial paralysis) was 1 µg/kg. The “high-dose injections giving a rapid response” value ([7]; tremor, hypertonus, paralysis) was 5 to 50 µg/kg and the “effect on inactivation of Nav1.6” value [8] was “significantly delayed the inactivation”.
